The experiment concerns the target protein A (UniProt P38507). In words: SPR, BIACORE 3000, protein A immobilised on CM5 chip, 10 ug/ml IgG in flow at 20 ul/min.

“anti-BSA mouse IgG (molecular weight: 150,000) (antibody)”: the koff – broadly, a measure of how fast the partners let go of each other – is 0.00056 s⁻¹ and the kon (in general, the second-order rate constant of association) is 140000 M⁻¹ s⁻¹.

Source of the values: patent US7723122.
